Test in all cases: Visual growth study, phytotoxicity index, chemicals scattered on the next day after sowing
Holding throughout (conditions): treated next day after sowing, 26 days after treatment, 0 = no growth inhibition, 100 = full dying, 4-(tert-butyl)benzoic acid 1000 g ai/ha in Examples, 0 in Comparative Examples, herbicide dose per label

Series [1] has as its system sweet corn (Delicious 100). How it is done:
(§1) A wettable powder containing 10% of 4-(tert-butyl)benzoic acid was prepared by blending pulverization of 10 parts of 4-(tert-butyl)benzoic acid, 2 parts of a sodium salt of naphthalenesulfonic acid-formalin condensation product, 2 parts of a polyoxyethylene alkyl ether, 30 parts of diatomaceous earth and 56 parts of clay by using a high-speed air-jet pulverizer.
(§2) These containers were each kept standing in a water vat and water supply for pooling was introduced through the hole opening at the bottom of the water vat.
(§3) For comparison, on the other hand, evaluation was made by conducting growth studies by growing sweet corn, wheat, dry-paddy rice, sorghum, soybean, adzuki bean and rapeseed under the same conditions as in the Examples excepting for the omission of scattering of 4-(tert-butyl)benzoic acid.

The test system of series [2] is wheat (Brigadier). How it is done:
as §1, §2, §3

The test system of series [3] is dry-paddy rice (Labell). The procedure: as §1, §2, §3
For series [4], the system named is soybean (Fukuyutaka). The procedure:
as §1, §2, §3

In series [5] the test system is adzuki bean (Dainagon). How it is done: as §1, §2, §3
Series [6] concerns rapeseed. How it is done:
as §1, §2, §3

The values below come from patent US8318635B2, “Phytotoxicity controlling agent for upland farming and phytotoxicity controlling method using the same” (priority 2006, dated 2012).

Where a name gives a salt, the structure may show the parent alone.

As for `CC(C)C1(C)N=C(c2nc3ccccc3cc2C(=O)O)NC1=O` (stereo not drawn) [compound 1, Imazaquin ammonium salt], the Phytotoxicity index in series [1] came out at 23.

As to `CC(C)C1(C)N=C(c2nc3ccccc3cc2C(=O)O)NC1=O` (stereo not drawn) [compound 5, Imazaquin ammonium salt], in series [2], the Phytotoxicity index was 30.

As for `CC(C)C1(C)N=C(c2nc3ccccc3cc2C(=O)O)NC1=O` (stereo not drawn) [compound 6, Imazaquin ammonium salt], the Phytotoxicity index in series [3] is recorded as 50.

With `CC(C)C1(C)N=C(c2nc3ccccc3cc2C(=O)O)NC1=O` (stereo not drawn) [compound 9, Imazaquin ammonium salt], the Phytotoxicity index in series [4] amounted to 15.

For the compound `CC(C)C1(C)N=C(c2nc3ccccc3cc2C(=O)O)NC1=O` (stereo not drawn) [compound 12, Imazaquin ammonium salt], the Phytotoxicity index in series [5] is 38.

As for `CC(C)C1(C)N=C(c2nc3ccccc3cc2C(=O)O)NC1=O` (stereo not drawn) [compound 13, Imazaquin ammonium salt], in series [6], the Phytotoxicity index stood at 50.
